Experiments:
[1] = Stability test (high temperature, high humidity, strong light; related substances by HPLC)
[2] = test system: DSS-induced mouse enteritis model; experiment: DSS-induced mouse enteritis model; conditions: 100 mg/kg, p.o.×9, DSS drinking water for 9 days, x±s
[3] = Pharmacokinetic study in plasma (LC/MS)
[4] = Distribution experiment in brain and other tissues (LC/MS); conditions: for AUC0-t, Brain / AUC0-t, Liver / AUC0-t, Lung / AUC0-t, Pancreas / AUC0-t, Plasma: single dose
[5] = High Humidity 25 °C RH 90% ± 5%, 5 Days
[6] = High Humidity 25 °C RH 90% ± 5%, 10 Days
[7] = High Temperature 60 °C, 10 Days
[8] = Light Exposure 4500 lx ± 500 lx, 5 Days
[9] = Light Exposure 4500 lx ± 500 lx, 10 Days

HPLC peak RRT 1 (main peak) ([1]; 0 days): 99.466
related substances (HPLC), RRT 0.99 ([1]; 0 days): 0.023
related substances (HPLC), RRT 1.05 ([1]; 0 days): 0.046
related substances (HPLC), RRT 1.08 ([1]; 0 days): 0.029
HPLC peak RRT 1 (main peak) [1, 5]: 99.415
related substances (HPLC), RRT 0.99 [1, 5]: 0.026
related substances (HPLC), RRT 1.05 [1, 5]: 0.066
related substances (HPLC), RRT 1.08 [1, 5]: 0.057
related substances (HPLC), RRT 1.09 [1, 5]: 0.436
HPLC peak RRT 1 (main peak) [1, 6]: 99.416
related substances (HPLC), RRT 0.99 [1, 6]: 0.027
related substances (HPLC), RRT 1.05 [1, 6]: 0.061
related substances (HPLC), RRT 1.08 [1, 6]: 0.049
related substances (HPLC), RRT 1.09 [1, 6]: 0.447
HPLC peak RRT 1 (main peak) ([1]; High Temperature 60 °C, 5 Days): 99.393
related substances (HPLC), RRT 0.99 ([1]; High Temperature 60 °C, 5 Days): 0.032
related substances (HPLC), RRT 1.05 ([1]; High Temperature 60 °C, 5 Days): 0.070
related substances (HPLC), RRT 1.08 ([1]; High Temperature 60 °C, 5 Days): 0.035
related substances (HPLC), RRT 1.09 ([1]; High Temperature 60 °C, 5 Days): 0.431
HPLC peak RRT 1 (main peak) [1, 7]: 99.394
related substances (HPLC), RRT 0.99 [1, 7]: 0.035
related substances (HPLC), RRT 1.05 [1, 7]: 0.080
related substances (HPLC), RRT 1.08 [1, 7]: 0.057
related substances (HPLC), RRT 1.09 [1, 7]: 0.434
HPLC peak RRT 1 (main peak) [1, 8]: 99.351
related substances (HPLC), RRT 0.54 [1, 8]: 0.03
related substances (HPLC), RRT 0.99 [1, 8]: 0.052
related substances (HPLC), RRT 1.05 [1, 8]: 0.056
related substances (HPLC), RRT 1.08 [1, 8]: 0.025
related substances (HPLC), RRT 1.09 [1, 8]: 0.426
related substances (HPLC), RRT 1.29 [1, 8]: 0.024
HPLC peak RRT 1 (main peak) [1, 9]: 99.017
related substances (HPLC), RRT 0.54 [1, 9]: 0.09
related substances (HPLC), RRT 0.75 [1, 9]: 0.031
related substances (HPLC), RRT 0.85 [1, 9]: 0.026
related substances (HPLC), RRT 0.87 [1, 9]: 0.100
related substances (HPLC), RRT 0.91 [1, 9]: 0.041
related substances (HPLC), RRT 0.99 [1, 9]: 0.067
related substances (HPLC), RRT 1.05 [1, 9]: 0.068
related substances (HPLC), RRT 1.08 [1, 9]: 0.082
related substances (HPLC), RRT 1.09 [1, 9]: 0.437
related substances (HPLC), RRT 1.29 [1, 9]: 0.040
Cl ([3]; iv (20mg/kg)): 99.08 mL/min/kg
MRT0-t ([3]; iv (20mg/kg)): 1.15 h
Vd ([3]; iv (20mg/kg)): 27.403 L/kg
AUC0-t ([3]; iv (20 mg/kg), plasma): 1134 ng·h/mL
AUC0-∞ ([3]; iv (20 mg/kg), plasma): 1135 ng·h/mL
C0 ([3]; iv (20 mg/kg), plasma): 1516 ng/mL
T1/2 ([3]; iv (20 mg/kg), plasma): 3.195 h
MRT0-t ([3]; po (100mg/kg)): 4.91 h
F ([3]; po(100mg/kg) vs iv (20 mg/kg)): 27.94%
AUC0-t ([3]; po(100mg/kg), plasma): 1585 ng·h/mL
AUC0-∞ ([3]; po(100mg/kg), plasma): 1622 ng·h/mL
Cmax ([3]; po(100mg/kg), plasma): 689 ng/mL
T1/2 ([3]; po(100mg/kg), plasma): 4.91 h
Tmax ([3]; po(100mg/kg), plasma): 0.50 h
Fold ( AUCtissue/AUCplasma ), Brain ([4]; iv (20mg/kg)): 49
Fold ( AUCtissue/AUCplasma ), Liver ([4]; iv (20mg/kg)): 104
Fold ( AUCtissue/AUCplasma ), Lung ([4]; iv (20mg/kg)): 26
Fold ( AUCtissue/AUCplasma ), Pancreas ([4]; iv (20mg/kg)): 41
AUC0-t, Brain ([4]; iv (20mg/kg)): 55058 ng·h/g
AUC0-t, Liver ([4]; iv (20mg/kg)): 117789 ng·h/g
AUC0-t, Lung ([4]; iv (20mg/kg)): 29414 ng·h/g
AUC0-t, Pancreas ([4]; iv (20mg/kg)): 46349 ng·h/g
AUC0-t, Plasma ([4]; iv (20mg/kg)): 1134 ng·h/mL
Fold ( AUCtissue/AUCplasma ), Brain ([4]; po (100mg/kg)): 27
Fold ( AUCtissue/AUCplasma ), Liver ([4]; po (100mg/kg)): 506
Fold ( AUCtissue/AUCplasma ), Lung ([4]; po (100mg/kg)): 52
Fold ( AUCtissue/AUCplasma ), Pancreas ([4]; po (100mg/kg)): 132
AUC0-t, Brain ([4]; po (100mg/kg)): 42230 ng·h/g
AUC0-t, Liver ([4]; po (100mg/kg)): 802349 ng·h/g
AUC0-t, Lung ([4]; po (100mg/kg)): 82118 ng·h/g
AUC0-t, Pancreas ([4]; po (100mg/kg)): 209482 ng·h/g
AUC0-t, Plasma ([4]; po (100mg/kg)): 1585 ng·h/mL
Compound: COc1cc(/C=C/c2ccc(OCCN(C)C)cc2)cc(OC)c1
Body weight (g) Day 1 of administration [2]: 23.3 ± 0.7 g
Body weight (g) End [2]: 20.9 ± 1.8 g
Colorectal length (cm) [2]: 6.4±0.7 cm
DAI score First day of symptom onset [2]: 0.3±0.2
